In IntAct's records for PubMed 19158663:

B1: Prolyl 3,4-dihydroxylase ofd1 (Schizosaccharomyces pombe (strain ATCC 38366 / 972)), Q11120 (parent)
chain: MGDTQQPTVLDRFAPHALDTSEAERLSREYHKNGPYNHVVIRPLINDTLLRNVRKELMENIHFTEKVTDIYRVWQTGDLANLDGLDKKEQNMLKYLRQVRDALYSEEFRSHVQKITGCGPLSASKKDLSVNVYSKGCHLMNHDDVIGTRCISYILYLVEPDEGWKPEYGGALRLFPTLQPSFPAADFCHSIPPQWNQLSFFRVKPGHSFHDVEEVYVDKPRMAISGWFHYPQPGEPGYDANYCDNTVSTLQSLTMKQMDLELPRFSYYPVVKPEPLSKQDTDILSNYINPLYLTPDGIEKLSKRFFQDSVIVLVEFLNQEFANTLLKRIIDAERQPTPMHSSEVSFPWKTAIPPHKHRYLYLDHEEFGPDIILPMDLQRLPAFQRWIQLVSGLPLRSFHQVGRRFRPGSDFTLATTNDTALLEATLCLSPGTGIANTDNGAYDIYMIGDEDPDVDAAVYRGDQQDDSILLSLPAAWNVFSLVYRDEGVLQFVKYVSRQAESSRWDIYSQWNPVAE
partner: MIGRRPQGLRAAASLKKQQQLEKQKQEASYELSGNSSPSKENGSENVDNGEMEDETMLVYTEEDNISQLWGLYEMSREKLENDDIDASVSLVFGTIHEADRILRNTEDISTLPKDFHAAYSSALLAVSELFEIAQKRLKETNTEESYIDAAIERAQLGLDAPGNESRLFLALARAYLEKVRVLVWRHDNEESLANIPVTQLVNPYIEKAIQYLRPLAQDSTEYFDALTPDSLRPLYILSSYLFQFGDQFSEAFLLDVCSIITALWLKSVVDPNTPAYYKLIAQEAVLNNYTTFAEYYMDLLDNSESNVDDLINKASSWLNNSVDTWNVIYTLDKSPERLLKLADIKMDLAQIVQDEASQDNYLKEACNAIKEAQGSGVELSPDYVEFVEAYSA

Variants of: B1
Conditions: with ett1_schpo nro1, Q9USJ7

Variant	effect of a mutation on the interaction
H210A	decreasing interaction

Variants of: B1
Conditions: with ett1_schpo nro1, Q9USJ7
Remark: another data set of the same source

Variant	effect of a mutation on the interaction
H142A	decreasing interaction

Variants of: B1
Conditions: with ett1_schpo nro1, Q9USJ7
Remark: another data set of the same source

Variant	effect of a mutation on the interaction
D144A	decreasing interaction
